# Antibody variant affinities, Ab-14 heavy chain, assay 1

Values reported by Engelhart et al. 2022, doi:10.1038/s41597-022-01779-4 (FLAb copy).

The target is the same throughout: PDVDLGDISGINAS, from the HR2 region of SARS-CoV-2 spike.

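Phage display of a naive human antibody library on the peptide gave the parent. Variants in AAYL49 differ from the parent at up to three CDR positions; double and triple changes were sampled at random. The assay is AlphaSeq: two haploid yeast populations carry antibody and antigen on their surface. Binding brings cells together so that they mate, and sequencing counts the barcode pairs among the diploids. Scores were corrected for input abundance and mapped to Kd with protein pairs of known affinity run in the same pool. Mating was done three times.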

The variants keep the light chain, the linker and the frameworks of Ab-14 (scFv order VH, a (GGGGS)3 linker, VL).
VH: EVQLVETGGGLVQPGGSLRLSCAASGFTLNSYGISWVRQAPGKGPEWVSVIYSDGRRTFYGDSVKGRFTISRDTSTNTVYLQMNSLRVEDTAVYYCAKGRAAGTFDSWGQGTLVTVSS
VL: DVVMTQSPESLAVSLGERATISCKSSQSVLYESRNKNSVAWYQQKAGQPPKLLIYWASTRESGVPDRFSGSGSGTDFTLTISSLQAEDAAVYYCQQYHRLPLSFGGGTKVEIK

Positions count from residue 1 of the parent VH; G26N puts N in place of G.
The read-out is the apparent dissociation constant on a log10 scale (nM): the lower, the stronger.
The mean shown is taken over the replicates in which the pair was detected.
"nd" means that the variant was in the library but no mating with the target was seen in that replicate; the authors take this as a sign of poor binding, and no number exists.
In this assay the parent's reference entry averaged 0.65; its copy inside this library read 4.11 (one replicate of three).

changes,log10 Kd (nM) by replicate,"mean, log10 nM",control signals
G26N G55L R57A,nd / nd / nd,nd,2 of 9 (4.12)
G61Y R100A,nd / nd / nd,nd,0 of 9
T28A Y32N V64N,nd / nd / nd,nd,2 of 9 (4.07)
S35G V50I A101S,nd / nd / nd,nd,1 of 9 (2.95)
F27H K65L S107H,3.51 / 3.19 / 3.81,3.50,0 of 9
S31I D54M G61S,nd / nd / nd,nd,1 of 9 (3.04)
F27H V50G G55D,4.43 / nd / nd,4.43,2 of 9 (4.18)
Y32D G61N K65Q,nd / nd / nd,nd,0 of 9
S53L V64S G99Q,nd / 5.05 / nd,5.05,1 of 9 (4.29)
R56D G103D S107Q,nd / nd / nd,nd,0 of 9
V50N D62I,nd / nd / nd,nd,0 of 9
G26F G61E A101D,nd / nd / nd,nd,0 of 9
L29W D54G G55E,nd / nd / nd,nd,0 of 9
Y52F F59M K65I,3.46 / nd / 4.04,3.75,1 of 9 (3.39)
G33R V50E K65N,3.67 / 4.01 / 4.56,4.08,5 of 9 (4.23)
G26R D62E G99P,1.25 / 1.45 / 1.58,1.43,1 of 9 (4.66)
S31C Y32M K65Q,nd / nd / 4.52,4.52,4 of 9 (4.63)
S35L G103A S107W,nd / nd / nd,nd,0 of 9
S53D G55H F105T,4.57 / nd / 4.47,4.52,1 of 9 (4.15)
T58M Y60S A102F,nd / nd / 3.47,3.47,3 of 9 (3.02)
G26C R56K R100V,nd / nd / nd,nd,0 of 9
D62P A101F G103R,2.70 / 2.62 / 3.09,2.80,6 of 9 (4.38)
T28D Y52W G99E,nd / nd / nd,nd,3 of 9 (3.69)
V50E R56M F105R,nd / nd / 3.85,3.85,1 of 9 (4.13)
I51F V64R A101C,nd / nd / nd,nd,0 of 9
N30H S53Y S63N,nd / nd / 3.67,3.67,0 of 9
Y52K G99N F105L,4.81 / 4.30 / 6.44,5.18,6 of 9 (4.54)
Y60G R100L D106M,nd / nd / nd,nd,0 of 9
S35I G99D T104F,nd / 4.39 / 5.00,4.70,1 of 9 (3.50)
T28G G55S F105I,nd / 2.95 / nd,2.95,1 of 9 (4.89)
T28Q Y52L S53C,nd / nd / nd,nd,0 of 9
N30D V50Y V64C,nd / nd / nd,nd,0 of 9
T28P S31L F105V,1.25 / 1.08 / 1.02,1.11,1 of 9 (3.99)
F27G I51T K65I,nd / nd / nd,nd,5 of 9 (3.82)
S35V R56Q V64I,2.98 / nd / nd,2.98,1 of 9 (4.17)
N30Y R57Q R100K,nd / nd / 4.00,4.00,1 of 9 (3.12)
L29R I34Q G61I,nd / nd / nd,nd,0 of 9
G26I Y32C R100V,nd / nd / nd,nd,0 of 9
I51S V64G R100Y,3.63 / nd / nd,3.63,4 of 9 (3.61)
D62P A102V,nd / nd / 3.93,3.93,4 of 9 (4.20)
R100Q,3.79 / 4.89 / nd,4.34,5 of 9 (4.31)
N30V F59C G99E,nd / nd / nd,nd,0 of 9
G33L I51P,nd / 3.38 / nd,3.38,5 of 9 (4.57)
S31H R100T A102W,4.33 / nd / nd,4.33,0 of 9

A selection of 6 entries from above:

{"changes": "G26N G55L R57A", "log10 Kd (nM) by replicate": "nd / nd / nd", "mean, log10 nM": "nd", "control signals": "2 of 9 (4.12)"}
{"changes": "T28D Y52W G99E", "log10 Kd (nM) by replicate": "nd / nd / nd", "mean, log10 nM": "nd", "control signals": "3 of 9 (3.69)"}
{"changes": "S35L G103A S107W", "log10 Kd (nM) by replicate": "nd / nd / nd", "mean, log10 nM": "nd", "control signals": "0 of 9"}
{"changes": "Y52K G99N F105L", "log10 Kd (nM) by replicate": "4.81 / 4.30 / 6.44", "mean, log10 nM": "5.18", "control signals": "6 of 9 (4.54)"}
{"changes": "D62P A102V", "log10 Kd (nM) by replicate": "nd / nd / 3.93", "mean, log10 nM": "3.93", "control signals": "4 of 9 (4.20)"}
{"changes": "I51S V64G R100Y", "log10 Kd (nM) by replicate": "3.63 / nd / nd", "mean, log10 nM": "3.63", "control signals": "4 of 9 (3.61)"}

Nonspecific signal, from three strains lacking the peptide, appeared in 15% of pairings of library AAYL49, centred on 4.06 (5% of these signals below 2.83); values are not corrected for it. Also given: how often the same scFv was detected with the empty control strains, with their mean in brackets.